{"source": "patent US7888389B2", "about": "(The Regents of the University of Michigan, priority 2002, dated 2011)", "test_system": "metastatic solid tumors", "settings": "two angiosarcoma patients on TM with IFN-α 500,000 units sc twice a day and radiotherapy", "data": [{"substance": "interferon-alpha 2 [IFN-α]", "values": [{"measurement": "duration of disease stabilization", "result": "over 60 days"}]}]}
